The results in this text go back to ChEMBL document CHEMBL1152245 (Bioorg Med Chem Lett, 2008).

By UniProt entry, the sequences of proteins in these tests, tags left out.
UniProt P20309, whole entry: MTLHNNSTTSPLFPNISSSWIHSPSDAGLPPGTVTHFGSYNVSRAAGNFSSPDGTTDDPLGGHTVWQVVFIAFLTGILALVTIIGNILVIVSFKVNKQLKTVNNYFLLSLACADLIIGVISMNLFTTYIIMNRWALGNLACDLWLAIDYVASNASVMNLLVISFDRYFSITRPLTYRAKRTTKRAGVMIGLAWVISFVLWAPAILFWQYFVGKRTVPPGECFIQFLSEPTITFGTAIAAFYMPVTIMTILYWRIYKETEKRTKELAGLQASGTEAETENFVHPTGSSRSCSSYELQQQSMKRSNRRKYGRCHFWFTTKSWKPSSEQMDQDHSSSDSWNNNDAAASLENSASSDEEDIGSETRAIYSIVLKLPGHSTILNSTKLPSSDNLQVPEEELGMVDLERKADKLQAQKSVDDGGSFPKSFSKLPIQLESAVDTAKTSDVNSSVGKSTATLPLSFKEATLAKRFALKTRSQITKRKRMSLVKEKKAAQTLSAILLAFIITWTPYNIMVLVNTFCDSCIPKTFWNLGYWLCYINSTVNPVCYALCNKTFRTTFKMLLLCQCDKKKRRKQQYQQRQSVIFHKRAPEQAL

The structures appear in SMILES notation. pEC50: −log10 of the molar value.

The target in the assay is Muscarinic acetylcholine receptor M3 (Homo sapiens, UniProt P20309). The experiment in a line: Agonist activity at muscarinic M3 receptor. It is filed as functional.

In turn, `NC(=O)OCCN1CCC(N2CCC(n3c(=O)[nH]c4ccccc43)CC2)CC1` gave a pEC50 of 6.95.
